Chains of the proteins cited; added tags and fusions are not shown. Lines headed by an entry give the natural chain unless they say otherwise; changes in a name come on top.
UniProt P22303: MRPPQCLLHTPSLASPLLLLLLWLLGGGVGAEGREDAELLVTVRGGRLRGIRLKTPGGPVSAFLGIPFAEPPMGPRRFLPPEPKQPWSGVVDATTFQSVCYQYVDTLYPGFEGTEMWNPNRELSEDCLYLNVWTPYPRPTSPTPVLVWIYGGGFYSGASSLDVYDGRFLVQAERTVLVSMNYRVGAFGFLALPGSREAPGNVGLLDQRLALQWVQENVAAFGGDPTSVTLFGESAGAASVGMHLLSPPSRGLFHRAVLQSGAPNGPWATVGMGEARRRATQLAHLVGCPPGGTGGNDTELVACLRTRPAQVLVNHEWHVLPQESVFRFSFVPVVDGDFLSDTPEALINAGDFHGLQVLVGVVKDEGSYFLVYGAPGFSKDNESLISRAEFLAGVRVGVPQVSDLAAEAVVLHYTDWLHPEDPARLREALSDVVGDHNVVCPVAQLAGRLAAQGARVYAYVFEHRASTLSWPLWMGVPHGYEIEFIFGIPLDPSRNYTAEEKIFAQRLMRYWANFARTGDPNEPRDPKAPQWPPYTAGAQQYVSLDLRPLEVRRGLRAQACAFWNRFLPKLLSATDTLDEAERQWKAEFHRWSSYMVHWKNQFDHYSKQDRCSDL

In ChEMBL document CHEMBL3232723, “Design, synthesis and biological evaluation of novel tetrahydroacridine pyridine- aldoxime and -amidoxime hybrids as efficient uncharged reactivators of nerve agent-inhibited human acetylcholinesterase” (2014):

Assays:
[1] = molecular target: Acetylcholinesterase (Homo sapiens) (UniProt P22303); test: Reactivation of methylphosphonothioate VX-inhibited recombinant human AChE assessed as maximal reactivation rate constant measured up to 10 mins by Ellman's method
[2] = molecular target: Acetylcholinesterase (Homo sapiens) (UniProt P22303); test: Reactivation of methylphosphonothioate VX-inhibited recombinant human AChE assessed as apparent reactivation rate measured up to 10 mins by Ellman's method
[3] = molecular target: Acetylcholinesterase (Homo sapiens) (UniProt P22303); test: Reactivation of methylphosphonothioate VX-inhibited recombinant human AChE assessed as apparent reactivation rate at 1 uM measured up to 10 mins by Ellman's method
[4] = molecular target: Acetylcholinesterase (Homo sapiens) (UniProt P22303); test: Reactivation of paraoxon-inhibited recombinant human AChE assessed as apparent reactivation rate measured up to 10 mins by Ellman's method
[5] = molecular target: Acetylcholinesterase (Homo sapiens) (UniProt P22303); test: Reactivation of paraoxon-inhibited recombinant human AChE assessed as apparent reactivation rate at 200 uM measured up to 10 mins by Ellman's method
[6] = molecular target: Acetylcholinesterase (Homo sapiens) (UniProt P22303); test: Reactivation of tabun-inhibited recombinant human AChE assessed as maximal reactivation rate constant measured up to 10 mins by Ellman's method
[7] = molecular target: Acetylcholinesterase (Homo sapiens) (UniProt P22303); test: Reactivation of paraoxon-inhibited recombinant human AChE assessed as maximal reactivation rate constant measured up to 10 mins by Ellman's method
[8] = molecular target: Acetylcholinesterase (Homo sapiens) (UniProt P22303); test: Reactivation of methylphosphonothioate VX-inhibited recombinant human AChE assessed as apparent reactivation rate at 200 uM measured up to 10 mins by Ellman's method

Row | Compound | K [1] | K [7] | further results
1 | CN(CCNc1c2c(nc3ccccc13)CCCC2)Cc1ccnc(/C(N)=N/O)c1O | 0.0094 min⁻¹ | – | –
2 | O/N=C/c1ncc(CCCCCNc2c3c(nc4ccccc24)CCCC3)cc1O | – | – | K [2]: < 0.01 min⁻¹; K [3]: 0.0038 min⁻¹
3 | CN(CCCNc1c2c(nc3ccccc13)CCCC2)Cc1ccnc(/C(N)=N/O)c1O | 0.032 min⁻¹ | – | K [4]: < 0.01 min⁻¹; K [5]: 0.0043 min⁻¹
4 | O/N=C/c1ncccc1O | 0.5 min⁻¹ | – | –
5 | O/N=C/c1nc(CCCCCNc2c3c(nc4ccccc24)CCCC3)ccc1O | 0.56 min⁻¹ | 0.0228 min⁻¹ | K [6]: 0.0075 min⁻¹
6 | NC(=O)c1cc[n+](CCC[n+]2ccccc2/C=N/O)cc1 | 0.44 min⁻¹ | – | –
7 | O/N=C/c1nc(CCCCCSc2c3c(nc4ccccc24)CCCC3)ccc1O | – | – | K [2]: < 0.01 min⁻¹; K [8]: 0.0076 min⁻¹
8 | O/N=C/c1nc(CCCCNc2c3c(nc4ccccc24)CCCC3)ccc1O | 0.72 min⁻¹ | 0.111 min⁻¹ | –
9 | N/C(=N\O)c1ncccc1O | 0.08 min⁻¹ | – | –
10 | O/N=C/c1cc[n+](CCC[n+]2ccc(/C=N/O)cc2)cc1 | – | 0.34 min⁻¹ | –
